Measured values as given in PMC3604073, “Chemerin Is an Antimicrobial Agent in Human Epidermis” (PLoS ONE, 2013).

Columns and labels:
S. epiderm. ATCC 12228 = conditions: ATCC 12228, 2 h, pH 7.4
E. coli ATCC 11775 = conditions: ATCC 11775, 2 h, pH 7.4
S. aureus ATCC 6538 = conditions: ATCC 6538, 2 h, pH 7.4
C. albicans ATCC 24433 = conditions: ATCC 24433, 2 h, pH 7.4
P. aerugin. ATCC 10145 = conditions: ATCC 10145, 2 h, pH 7.4
S. epiderm. ATCC 14990 = conditions: ATCC 14990, 2 h, pH 7.4

- MIC (S. epiderm. ATCC 12228): 12.5 µg/mL (≈ 4.91 µM)
- MIC (E. coli ATCC 11775): 3.1 to 6.3 µg/mL
- MIC (S. aureus ATCC 6538): 12.5 µg/mL (≈ 4.91 µM)
- MIC (C. albicans ATCC 24433): 6.3 µg/mL (≈ 2.47 µM)
- MIC (P. aerugin. ATCC 10145): 6.3 µg/mL (≈ 2.47 µM)
- MIC (S. epiderm. ATCC 14990): 12.5 µg/mL (≈ 4.91 µM)
Structure (SMILES): CC(C)C[C@H](NC(=O)[C@H](CCCCN)NC(=O)[C@H](Cc1ccccc1)NC(=O)[C@H](CCC(=O)O)NC(=O)[C@H](CC(C)C)NC(=O)[C@H](CCCNC(=N)N)NC(=O)[C@@H](N)C(C)C)C(=O)N[C@@H](CCC(N)=O)C(=O)N[C@@H](CCC(N)=O)C(=O)N[C@H](C(=O)N[C@@H](CO)C(=O)N[C@@H](CS)C(=O)N[C@@H](CCCNC(=N)N)C(=O)N[C@@H](CCCCN)C(=O)N[C@@H](CCCNC(=N)N)C(=O)N[C@@H](CC(=O)O)C(=O)N[C@@H](Cc1c[nH]c2ccccc12)C(=O)N[C@@H](CCCCN)C(=O)N[C@@H](CCCCN)C(=O)N1CCC[C@H]1C(=O)O)[C@@H](C)O [p4]

In brackets after ≈: the same amount, converted by molar mass.
